From patent publication US20050020565A1, “CCK-1 receptor modulators” (priority 2003, published 2005)

Chains of the proteins cited; added tags and fusions are not shown.
UniProt P32238, whole entry: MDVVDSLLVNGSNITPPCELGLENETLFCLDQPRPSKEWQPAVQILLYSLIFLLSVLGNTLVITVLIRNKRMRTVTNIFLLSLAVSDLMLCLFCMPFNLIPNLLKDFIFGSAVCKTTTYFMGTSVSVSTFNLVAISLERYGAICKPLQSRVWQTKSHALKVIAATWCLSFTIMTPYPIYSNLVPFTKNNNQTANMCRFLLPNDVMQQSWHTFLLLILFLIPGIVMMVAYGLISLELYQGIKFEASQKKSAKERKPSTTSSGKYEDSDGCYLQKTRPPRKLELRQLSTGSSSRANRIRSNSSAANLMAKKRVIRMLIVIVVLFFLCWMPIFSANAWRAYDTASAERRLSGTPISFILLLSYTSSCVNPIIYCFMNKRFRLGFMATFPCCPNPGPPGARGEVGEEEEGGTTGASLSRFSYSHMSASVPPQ

Molecular target: CCK-1 receptor (Homo sapiens, UniProt P32238)
Assay: CCK-1 receptor radioligand binding assay ([125I]-BH-CCK-8S displacement, membranes of stably transfected CHO-K1 cells)
Conditions: membranes of CHO-K1 cells stably transfected with CCK-1 receptor, 0.3 μM PD-134,308 present
Procedure: CHO-K1 cells that had undergone-stable transfection with the CCK-1 receptor were grown in DMEM supplemented with L-glutamine (2 mM), penicillin (50 units/mL) and streptomycin (50 μg/mL). Cells were cultured under continuous G418 selection (2 mM) and were harvested using a rubber cell scraper. CHO-K1 cells were sub-cultured a maximum of ten times before being reseeded from the original stocks.
Membranes were prepared from the stably transfected CHO-K1 cells. Frozen cell pellets (−40° C.) were thawed in 14 mL of buffer A (10 mM HEPES, 130 mM NaCl, 4.7 mM KCl, 5 mM MgCl, 1 mM EGTA and 15.4 mg/100 mL bacitracin at pH 7.2), adapted from Harper et al. (Br. J. Pharmacol. (1996) 118, pp 1717-1726). The thawed pellets were homogenized using a Polytron PT-10 (7×1 s). […]
All assays were conducted in 96-well plates (GF/B millipore filter plates) using buffer A, with 0.3 μM PD-134,308, for the dilutions. […] Total binding of [1251]-BH—CCK-8S was determined in the presence of 15 μL of buffer A. Non-specific binding of [1 251]-BH—CCK-8S was determined in the presence of 15 μL of 100 μM 2-naphthalenesulphonyl L-aspartyl-(2-phenethyl)amide (2-NAP: see R. A. Hull et al., Br. J. Pharmacol. (1993) 108, pp 734-740), a CCK-1 receptor selective antagonist that is structurally unrelated to the radioligand [1251]-BH—CCK-8S. […] Bound radioactivity was determined using a gamma counter (count time=1 min). […]

pKi: 7.8
SMILES: COc1ccc(-n2nc(CC(C(=O)O)c3cccc(OC)c3)cc2-c2ccc(C)cc2)cc1 (stereo not shown)
